# Binding of CDR-mutated scFvs to a peptide of the spike HR2 region

From the AlphaSeq antibody data of Engelhart et al. 2022 (doi:10.1038/s41597-022-01779-4), copy in the FLAb collection.

All variants were tested on one target, the spike HR2 peptide PDVDLGDISGINAS (SARS-CoV-2).

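Variants in AAYL52 differ from the parent at up to three CDR positions; double and triple changes were sampled at random. Affinity was read by AlphaSeq, a pooled yeast mating assay with surface-displayed partners. Binding brings cells together so that they mate, and sequencing counts the barcode pairs among the diploids. Read counts were normalised to the haploid input and turned into Kd by a linear fit to BCL2-family pairs of known affinity, for each replicate. There are three technical replicates.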

Ab-95 is the parent antibody, in scFv form: VH, then the linker GGGGSGGGGSGGGGS, then VL. The heavy chain is unchanged in all variants.
VH: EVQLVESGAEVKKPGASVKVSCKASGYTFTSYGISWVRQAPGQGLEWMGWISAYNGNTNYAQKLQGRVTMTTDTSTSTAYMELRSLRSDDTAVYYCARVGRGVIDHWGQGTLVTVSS
VL: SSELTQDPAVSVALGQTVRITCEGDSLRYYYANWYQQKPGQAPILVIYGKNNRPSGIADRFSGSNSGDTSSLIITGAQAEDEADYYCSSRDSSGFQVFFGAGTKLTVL

The parent's light chain CDRs are EGDSLRYYYAN, GKNNRPS, SSRDSSGFQVF; each variant's own CDRs replace them letter for letter. Each Kd is an estimate from the mating assay, the geometric mean of the replicates in which the pair was seen; lower is stronger. A pair that was not seen in any replicate is written "no signal"; this usually means weak binding, but a binder can also be missed. As a blank, each scFv also met three strains without target: over library AAYL52, 28% of these pairings were detected, typically at 8.2 µM and seldom below 800 nM. In this assay the parent's reference entry averaged 200 nM; its copy inside this library read 180 nM.

apparent Kd | replicates with signal | CDR-L1 | CDR-L2 | CDR-L3
300 nM | 3/3 | EGDSLRYMYAN | DKNNRPS | SSRDSSGFQVH
1.3 µM | 1/3 | CGDSLRYYYAN | LKNNRPA | SSRDSSGFQVF
590 nM | 3/3 | EGDSLSYYTAN | GKNNRPS | SSRDSSGFQVT
150 nM | 3/3 | EGDSLRYYYAF | GKNNRPS | SSRDSSGFQVA
280 nM | 3/3 | EGDSTQYYYAN | GNNNRPS | SSRDSSGFQVF
1.4 µM | 2/3 | EGDSLWYYYAN | GLNNRPS | SSRDSSGFQVF
110 nM | 3/3 | EGDSLRYVYAN | GKNNRPS | SSRDSSMFQVG
21 µM | 2/3 | EGDRLRRYYAN | GKNHRPS | SSRDSSGFQVF
3.0 µM | 3/3 | EADSLRYYYAN | GKNNIPS | TSRDSSGFQVF
500 nM | 3/3 | EGDSARYYYAN | GRNNRPS | SSRDQSGFQVF
82 nM | 3/3 | EGDSLPYYYAN | GKNNRPS | SSRDNSQFQVF
14 µM | 2/3 | EAGSLRYYYAN | GKNNRPS | SSRDSPGFQVF
no signal | 0/3 | RGDSLRYYYAN | GKNNRPS | SSRDRSGFQVS
240 nM | 3/3 | EGDSFRMEYAN | GKNNRPS | SSRDSSGFQVF
14 µM | 1/3 | EGDSLRYYYAN | GLNNRPS | SSNDSSGFQVY
no signal | 0/3 | EGDSTRGYYAN | GKNNMPS | SSRDSSGFQVF
68 µM | 2/3 | EGDSLRYYYAN | GKCNRPS | LSYDSSGFQVF
320 nM | 3/3 | EGDSLRYYYAN | GANNRPS | SCRESSGFQVF
11 µM | 2/3 | EGDSLRYYYAN | GKNNRPS | PHRDSSGFQVF
no signal | 0/3 | EMDSKIYYYAN | GKNNRPS | SSRDSSGFQVF
2.6 µM | 2/3 | EKDSLRYYYAL | DKNNRPS | SSRDSSGFQVF
350 nM | 3/3 | EGDSLRYYYHN | GKNNRPG | SSRSSSGFQVF
5.5 µM | 2/3 | EGFSLRYYYMN | GKNNRPS | SSRDFSGFQVF
11 µM | 3/3 | EGDSLRYPYAN | GKNMRPS | SSNDSSGFQVF
4.1 µM | 2/3 | EGFSLRYYYAN | GKNNRPS | SSRDSSGFQWA
110 µM | 1/3 | EGDSLRYYYAN | EKNNRPS | RSRDSSGFQVR
62 µM | 2/3 | EGDSLRYYYAN | GKNNRKS | SSRDSSDFQHF
1.4 µM | 3/3 | EGDSIRYGYIN | GKNNRPS | SSRDSSGFQVF
1.8 µM | 3/3 | EGDELRYYYPN | GKNGRPS | SSRDSSGFQVF
57 nM | 3/3 | EGDSLGYMYAN | GKNNRPS | SSRDSSGFQVF
no signal | 0/3 | VGDSLRYYYAQ | GKNNRPS | SSRDSSGFQVF
2.5 µM | 2/3 | EGDSLHYYYAN | GKNRRPS | SSRDSSGFQVF
120 µM | 1/3 | EGDSLVYYYKN | GKNNRPS | SSRDSSGFVVF
3.5 µM | 2/3 | EGDSLTYYYCN | GKNNRPS | LSRDSSGFQVF
220 nM | 3/3 | RGDSLRYYYAN | GKNNIPS | SSRWSSGFQVF
88 µM | 1/3 | EGDSRRYYYMN | GKPNRPS | SSRDSSGFQVF
22 µM | 2/3 | EGDSLRYYYAN | IMNNRPS | SSRDSSGFTVF
1.3 µM | 3/3 | EGSSLRYYYAN | GHNNSPS | SSRDSSGFQVF
28 µM | 1/3 | EGDSLRYYYSP | GKNNRPS | SSRDSSGFQVF
4.4 µM | 2/3 | EGDSIRYYYAN | GKNNRPS | SSRCTSGFQVF
8.7 µM | 2/3 | EGDSARYYYAN | GKGNRPS | SSLDSSGFQVF
75 nM | 3/3 | EGDSLQYYYAN | GKNARPS | SARDSSGFQVF
1.4 µM | 1/3 | DGDSLRYYYAN | VKNNRPS | SSRDSSGFQVD
49 nM | 3/3 | EGDSLRYHYAY | GKNNRPS | SSRDSSGFQVF
no signal | 0/3 | ENDSLIYYYAN | GKNNRPS | SSRDSWGFQVF
19 µM | 2/3 | EGDSLRRYYSN | GWNNRPS | SSRDSSGFQVF
4.7 µM | 3/3 | EGDSLRCYYAN | GKNNRPS | DSRDSSGGQVF
430 nM | 3/3 | EGDSLRYFYAN | GSNERPS | SSRDSSGFQVF
4.0 µM | 3/3 | EGDSLWYYYAN | GRNNRPS | SSRDSMGFQVF
38 µM | 1/3 | EGDSLRYYYAN | GKTNRPS | SSRDMSGFQVF
5.0 µM | 3/3 | EGWSLRYYYAN | GKNNRPS | SSRNSSGFQVV
no signal | 0/3 | EQDSLRYYYAN | GKNYRPS | ISRDSSGFQVF
11 µM | 1/3 | EGDSIRYYYAN | GKNHRPS | SSRDSCGFQVF
1.5 µM | 1/3 | EGDSSQFYYAN | GKNNRPS | SSRDSSGFQVF
260 µM | 2/3 | EGDSLRYYYAK | GKNNRPS | SQRDSSFFQVF
2.1 µM | 1/3 | EGDSLRQYYAP | GVNNRPS | SSRDSSGFQVF
6.5 µM | 3/3 | ETDSLWYYYAN | GKNNRPS | SSRDSSGFQVH
620 nM | 3/3 | EGLSLRYYYVN | GKNNRPS | SSRWSSGFQVF
270 µM | 1/3 | EGDSLRYYYAY | GWNNRPS | STRDSSGFQVF
3.2 µM | 3/3 | EGDSVRYYYAN | GKNNRPS | SSRCSSGFIVF
84 µM | 1/3 | EGDSLRYFYAN | GKNNRPS | VSRDSSGFLVF
130 nM | 3/3 | EGDSLRYYYAN | GKNNRPS | SFRDSSGFQNW
2.8 µM | 3/3 | EGDSLRYYYAN | GKNNRES | SSRDSSGFQYH
no signal | 0/3 | EGDSLRYYYDN | GYNNRRS | SSRDSSGFQVF
no signal | 0/3 | EGDSLRYYYAN | GKNNRPS | SDCDSSGFQSF
no signal | 0/3 | EGDFLRYYYAN | GSNNRES | SSRDSSGFQVF
4.8 µM | 1/3 | EGDSHRGYYAN | YKNNRPS | SSRDSSGFQVF
42 µM | 2/3 | EGDSLRYYYAN | WKNNRPS | SIRVSSGFQVF
no signal | 0/3 | EGDSLIYIYAN | GKNNRPS | SSRDSSGFQVK
980 nM | 3/3 | VGDSLRYYYSN | GKNNRPS | SSRDSSGNQVF
5.6 µM | 2/3 | EGDSLRYYYAN | GKNNLPS | SSRDSSGFQVS
860 nM | 3/3 | EGDVLRYYYAN | GKNNRPS | SERDSSGNQVF

Top 8 of the variants detected in all replicates, tightest first:

CDR-L1,CDR-L2,CDR-L3,apparent Kd,replicates with signal
EGDSLRYHYAY,GKNNRPS,SSRDSSGFQVF,49 nM,3/3
EGDSLGYMYAN,GKNNRPS,SSRDSSGFQVF,57 nM,3/3
EGDSLQYYYAN,GKNARPS,SARDSSGFQVF,75 nM,3/3
EGDSLPYYYAN,GKNNRPS,SSRDNSQFQVF,82 nM,3/3
EGDSLRYVYAN,GKNNRPS,SSRDSSMFQVG,110 nM,3/3
EGDSLRYYYAN,GKNNRPS,SFRDSSGFQNW,130 nM,3/3
EGDSLRYYYAF,GKNNRPS,SSRDSSGFQVA,150 nM,3/3
RGDSLRYYYAN,GKNNIPS,SSRWSSGFQVF,220 nM,3/3